Measured values: PMC12591191, “SIRT6 Lysine‐Demyristoylates ATF2 to Ameliorate Vascular Injury via PRKCD/VE‐Cadherin Pathway Regulating Vascular Endothelial Barrier” (Advanced Science, 2025)

By UniProt entry, the sequences of proteins in these tests, tags left out.
UniProt Q8N6T7, whole entry: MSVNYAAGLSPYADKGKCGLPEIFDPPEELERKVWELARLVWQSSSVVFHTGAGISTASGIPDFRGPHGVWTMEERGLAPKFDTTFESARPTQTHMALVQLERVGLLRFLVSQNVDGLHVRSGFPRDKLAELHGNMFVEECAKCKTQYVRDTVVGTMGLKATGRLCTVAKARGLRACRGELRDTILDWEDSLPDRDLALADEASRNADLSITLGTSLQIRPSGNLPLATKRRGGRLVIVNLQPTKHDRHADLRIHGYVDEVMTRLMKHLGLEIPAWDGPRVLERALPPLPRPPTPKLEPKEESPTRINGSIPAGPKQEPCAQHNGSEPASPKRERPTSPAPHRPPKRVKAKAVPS
UniProt Q8N6T7, whole entry H133Y: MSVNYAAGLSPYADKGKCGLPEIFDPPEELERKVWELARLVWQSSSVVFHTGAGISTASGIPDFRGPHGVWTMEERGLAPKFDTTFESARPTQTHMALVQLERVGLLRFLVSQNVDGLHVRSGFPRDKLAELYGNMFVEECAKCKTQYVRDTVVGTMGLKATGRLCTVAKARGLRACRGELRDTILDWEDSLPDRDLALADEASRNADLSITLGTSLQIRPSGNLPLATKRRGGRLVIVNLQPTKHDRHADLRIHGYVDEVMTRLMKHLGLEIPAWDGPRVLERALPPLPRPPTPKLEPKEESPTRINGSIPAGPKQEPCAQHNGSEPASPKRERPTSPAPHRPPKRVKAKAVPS
UniProt Q8N6T7, whole entry S56Y: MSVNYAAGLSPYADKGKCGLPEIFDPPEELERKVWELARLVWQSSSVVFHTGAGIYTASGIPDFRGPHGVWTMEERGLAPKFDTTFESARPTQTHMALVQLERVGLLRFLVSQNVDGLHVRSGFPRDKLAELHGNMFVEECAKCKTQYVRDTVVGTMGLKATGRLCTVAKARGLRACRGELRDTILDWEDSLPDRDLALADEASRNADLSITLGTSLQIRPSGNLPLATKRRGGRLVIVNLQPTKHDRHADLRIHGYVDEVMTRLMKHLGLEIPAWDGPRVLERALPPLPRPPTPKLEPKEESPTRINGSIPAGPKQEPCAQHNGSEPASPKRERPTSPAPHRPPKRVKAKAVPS
UniProt Q8N6T7, whole entry R65A: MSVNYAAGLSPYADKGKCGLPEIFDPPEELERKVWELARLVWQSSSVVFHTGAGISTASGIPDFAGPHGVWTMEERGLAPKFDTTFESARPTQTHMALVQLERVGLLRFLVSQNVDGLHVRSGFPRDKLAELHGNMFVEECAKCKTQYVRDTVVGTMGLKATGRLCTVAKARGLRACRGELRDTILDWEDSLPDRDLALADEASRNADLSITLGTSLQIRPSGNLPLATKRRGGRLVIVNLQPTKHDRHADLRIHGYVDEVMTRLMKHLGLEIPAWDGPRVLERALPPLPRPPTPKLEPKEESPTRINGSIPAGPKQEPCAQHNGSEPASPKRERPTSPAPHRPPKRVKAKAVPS
UniProt Q8N6T7, whole entry G60A: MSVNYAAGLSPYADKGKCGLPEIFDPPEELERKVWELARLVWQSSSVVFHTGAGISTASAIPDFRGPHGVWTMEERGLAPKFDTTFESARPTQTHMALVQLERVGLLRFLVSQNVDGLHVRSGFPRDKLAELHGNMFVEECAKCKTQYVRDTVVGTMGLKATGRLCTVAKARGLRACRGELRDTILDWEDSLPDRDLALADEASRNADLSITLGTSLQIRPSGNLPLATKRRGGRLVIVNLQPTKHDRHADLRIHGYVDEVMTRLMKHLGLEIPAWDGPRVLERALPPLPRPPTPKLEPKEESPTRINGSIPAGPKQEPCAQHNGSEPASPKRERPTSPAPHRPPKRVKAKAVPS

Legend:
Assay type in all cases: binding
[1] = biological target: T1, SIRT6 (Homo sapiens, UniProt Q8N6T7); assay: Biolayer interferometry, SIRT6; settings: BLI, PBS-T, 120 µM biotin peptide on sensor, analyte SIRT6 0.18 to 5.5 µM, no detection; read-out: KD (nt)
T1 construct: the full‐length human SIRT6 (1‐355aa) with the flag tag at the C‐terminus; His-tag (N); made in house; host or cells: E. coli ArcticExpress (DE3), pET28a
From the text: (§1) The plasmid pUC57‐SIRT6 contained the full‐length human SIRT6 (1‐355aa) with the flag tag at the C‐terminus. The PCR fragment SIRT6‐Flag from pUC57‐SIRT6 was inserted into pET28a vector to obtain the plasmid pET28a‐SIRT6. Then the pET28a‐SIRT6G60A, pET28a‐SIRT6R65A, pET28a‐SIRT6S56Y, and pET28a‐SIRT6H133Y expression plasmids were obtained through site‐directed mutagenesis by PCR. These SIRT6 expression plasmids were used for SIRT6 expression and purification in E.coli.
(§2) The expression plasmids were transformed in the E.coli Arctic Express (DE3) cells, respectively. The E.coli cells were cultured at 37 °C in 2X YT culture medium. When OD600 reached 0.8, cells were induced by 0.2 mM isopropyl‐1‐thio‐β‐D‐galactopyranoside (IPTG) for 18–20 h at 16 °C. Then, cells were harvested by centrifugation at 6000 rpm for 10min at 4 °C and resuspended in lysis buffer (20 mM Tris‐HCl pH 7.2, 500 mM NaCl, 2% glycerol). Cells were lysed by a high‐pressure homogenizer (Avestin), and centrifuged at 15 000 rpm for room temperature min at 4 °C. […]
(§3) To determinate the affinity of SIRT6 proteins to myristoylated peptides, BLI assays were performed in 96 well plates using an Octet Red96 System. […] Meanwhile, the protein‐peptide affinities were also determined after adding several cofactors (5 mM), such as Mg^2+, Zn^2+, ATP, ADP, AMP, cAMP, NAD^+.

[2] = biological target: T2, SIRT6 H133Y (dSIRT6) (Homo sapiens, UniProt Q8N6T7, H133Y); assay: Biolayer interferometry, H133Y mutant; settings: BLI, PBS-T, 120 µM biotin peptide on sensor, analyte H133Y 0.18 to 5.5 µM, no detection; read-out: KD (nt)
T2 construct: the full‐length human SIRT6 (1‐355aa) with the flag tag at the C‐terminus; made in house; host or cells: E. coli ArcticExpress (DE3), pET28a
From the text: as §1, §2, §3

[3] = biological target: T3, SIRT6 S56Y (Homo sapiens, UniProt Q8N6T7, S56Y); assay: Biolayer interferometry, S56Y mutant; settings: BLI, PBS-T, 120 µM biotin peptide on sensor, analyte S56Y 0.18 to 5.5 µM, no detection; read-out: KD (nt)
T3 construct: the full‐length human SIRT6 (1‐355aa) with the flag tag at the C‐terminus; made in house; host or cells: E. coli ArcticExpress (DE3), pET28a
From the text: as §1, §2, §3

[4] = biological target: T4, SIRT6 R65A (Homo sapiens, UniProt Q8N6T7, R65A); assay: Biolayer interferometry, R65A mutant; settings: BLI, PBS-T, 120 µM biotin peptide on sensor, analyte R65A 0.18 to 5.5 µM, no detection; read-out: KD (nt)
T4 construct: the full‐length human SIRT6 (1‐355aa) with the flag tag at the C‐terminus; made in house; host or cells: E. coli ArcticExpress (DE3), pET28a
From the text: as §1, §2, §3

[5] = biological target: T5, SIRT6 G60A (Homo sapiens, UniProt Q8N6T7, G60A); assay: Biolayer interferometry, G60A mutant; settings: BLI, PBS-T, 120 µM biotin peptide on sensor, analyte G60A 0.18 to 5.5 µM, no detection; read-out: KD (nt)
T5 construct: the full‐length human SIRT6 (1‐355aa) with the flag tag at the C‐terminus; made in house; host or cells: E. coli ArcticExpress (DE3), pET28a
From the text: as §1, §2, §3

[6] = Biolayer interferometry, Flag peptide (negative control); settings: BLI, PBS-T, 120 µM biotin peptide on sensor, analyte flag peptide 0.18 to 5.5 µM
Experimental: To determinate the affinity of SIRT6 proteins to myristoylated peptides, BLI assays were performed in 96 well plates using an Octet Red96 System. Assays were performed in PBS‐T buffer (1X PBS, 0.05% tween‐20), 120 µM B‐H3K9^Myr‐5R or B‐H3K9‐5R was attached reversibly to the sensor chip surface. Then, the analytes (SIRT6/SIRT6 mutants/flag peptide, ranged from 0.18 to 5.5 µM) were injected over the sensor surface. We can determine the protein‐peptide affinity by calculating the KD value by the instrument system. Meanwhile, the protein‐peptide affinities were also determined after adding several cofactors (5 mM), such as Mg^2+, Zn^2+, ATP, ADP, AMP, cAMP, NAD^+.

Measured: Kd

C[C@H](NC(=O)[C@H](CCCCN)NC(=O)CNC(=O)CNC(=O)[C@@H](NC(=O)[C@H](CO)NC(=O)[C@H](CCCCN)NC(=O)[C@H](CCCNC(=N)N)NC(=O)[C@H](C)NC(=O)[C@@H](NC(=O)[C@H](CCC(N)=O)NC(=O)[C@H](CCCCN)NC(=O)CCCC[C@@H]1SC[C@@H]2NC(=O)N[C@@H]21)[C@@H](C)O)[C@@H](C)O)C(=O)N[C@@H](CCCNC(=N)N)C(=O)N[C@@H](CCCNC(=N)N)C(=O)N[C@@H](CCCNC(=N)N)C(=O)N[C@@H](CCCNC(=N)N)C(=O)N[C@@H](CCCNC(=N)N)C(=O)O [B‐H3K9‐5R, biotin‐KQTARKSTGGKARRRRR]
> 5.5 µM: all assays above
